Apparent affinities of Ab-14 variants for a coronavirus HR2 peptide

Data: MIT Lincoln Laboratory AlphaSeq set, Li et al. 2023, doi:10.1038/s41467-023-39022-2, as distributed in FLAb.

All variants were tested on one target, the spike HR2 peptide PDVDLGDISGINAS (SARS-CoV-2).

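The starting antibody came from a phage panning campaign against this peptide. This is the validation round: designs drawn from the data on random variants, tested in the same kind of assay. Several design methods are mixed in this list. The assay is AlphaSeq: two haploid yeast populations carry antibody and antigen on their surface. After mating in shaken culture at 30 °C for 16 h, diploids were selected and their barcode pairs sequenced. A regression on co-assayed BCL2-family reference pairs converts the normalised counts of each replicate to an apparent Kd. Mating was done six times.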

Parent scFv Ab-14: VH joined to VL by three GGGGS repeats. Changes lie in the heavy chain CDRs alone.
VH: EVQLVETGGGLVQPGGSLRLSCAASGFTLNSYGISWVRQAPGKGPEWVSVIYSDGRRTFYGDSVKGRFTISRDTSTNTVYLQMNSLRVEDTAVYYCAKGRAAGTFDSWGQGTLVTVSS
VL: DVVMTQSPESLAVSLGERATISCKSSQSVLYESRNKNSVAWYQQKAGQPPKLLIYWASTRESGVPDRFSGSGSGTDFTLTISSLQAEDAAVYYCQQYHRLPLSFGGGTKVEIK

Each variant is given by its three heavy chain CDRs, as the data file delimits them; those of the parent are GFTLNSYGIS, VIYSDGRRTFYGDSVK, GRAAGTFDS. Values are apparent Kd, the geometric mean of the replicates that gave a signal; lower means stronger binding. A pair that was not seen in any replicate is written "no signal"; this usually means weak binding, but a binder can also be missed.

Variant GFSLNEYGIS | VIYSDGRRTFYGDHVK | GRHAGTFDS showed 7.4 nM (6 of 6 replicates; controls 0 of 18).
Variant GFDLDEYGIS | VIYADGRRTAYADNVK | GNQAGTFDV showed 89 pM (6 of 6 replicates; controls 0 of 18).
Variant GFDLNEYGIS | VIYADGVRTAYVDNVK | GEVAGTFDV showed 330 pM (6 of 6 replicates; controls 0 of 18).
Variant GFDLNEYGIS | VIYADGVRTAYAESVK | GNQAGTFDV showed 620 pM (6 of 6 replicates; controls 1 of 18).
Variant GFDLDEYGIS | VIYADGMRTAYADSVK | GNNAGTFDL showed 490 pM (6 of 6 replicates; controls 0 of 18).
Variant GFSLNSYGIS | VIYSDGRRTFYDDSVK | GMQAGTFDS showed 3.6 nM (6 of 6 replicates; controls 0 of 18).
Variant GFGLNSYGIS | VIYSDGRRTFYIDSVK | GKAAGTFDS showed no signal (0 of 6 replicates; controls 0 of 18).
Variant GFNLDEYGVS | VIYADGMRMAYQNDVK | GQKGDVFFM showed 2.5 nM (6 of 6 replicates; controls 0 of 18).
Variant GFDLNEYGIS | VIYADGRRTAYLDSVK | GEVAGTFDS showed 390 pM (6 of 6 replicates; controls 0 of 18).
Variant GFTLNSYGIS | VIYADGRRTFYGDSVK | GKVAGTFDS showed 1.5 nM (6 of 6 replicates; controls 0 of 18).
Variant GFDLNEYGIS | VIYADGRRTFYSDSVK | GEIAGTFVS showed 4.9 nM (5 of 6 replicates; controls 0 of 18).
Variant GFTLNSYGIS | VIYSDGRRTFYGDSVK | GRAVGTFDL showed no signal (0 of 6 replicates; controls 0 of 18).
Variant GFDIMEYGVS | VIYADGVRTAYSQDVK | GFNLDLYTD showed no signal (0 of 6 replicates; controls 0 of 18).
Variant GFTLNSYGIS | VIYSDGRRTFYSDSVK | GRSAGTFDT showed 91 nM (1 of 6 replicates; controls 0 of 18).
Variant GFTLNEYGIS | VIYSDGRRTFYGDSVK | GRAALTFDI showed no signal (0 of 6 replicates; controls 1 of 18).
Variant GFDLNEYGIS | VIYADGQRTVYADSVK | GEVAGTFDV showed 430 pM (6 of 6 replicates; controls 0 of 18).
Variant GFTLNQYGIS | VIYSDGMRTFYSDSVK | GQAAGTFDS showed no signal (0 of 6 replicates; controls 0 of 18).
Variant GFNLNEYGIS | VIYSDGRRTAYAGSVK | GQNAGTFDS showed 2.6 nM (6 of 6 replicates; controls 0 of 18).
Variant GFTLNEYGIS | VIYSDGRRTFYGDEVK | GRAAGTTDS showed 75 nM (2 of 6 replicates; controls 0 of 18).
Variant GFDLDEQGIS | VIYADGQRKAYANAVK | GNQGNIART showed no signal (0 of 6 replicates; controls 2 of 18).
Variant GFELNEYGIS | VIYSDGRRTFYADSVK | GRTAGTFDS showed 1.5 nM (6 of 6 replicates; controls 0 of 18).
Variant GFSLNNYGIS | VIYSDGRRTFYGDSVK | GTAAGTFDS showed 2.5 nM (5 of 6 replicates; controls 0 of 18).
Variant GFSLNEYGIS | VIYSDGRRTFYMDSVK | GRQAGTFDS showed 1.8 nM (6 of 6 replicates; controls 0 of 18).
Variant GFDLNEYGIS | VIYADGVRTAYADNVK | GNEAGTFDV showed 1.4 nM (6 of 6 replicates; controls 0 of 18).
Variant GFTLNSYGIS | VIYSDGKRTFYGDSVV | GRARGTFDS showed no signal (0 of 6 replicates; controls 0 of 18).
Variant GFSLNSYGIS | VIYADGRRTFYGDSVK | GRAAGTFDN showed 1.2 nM (6 of 6 replicates; controls 1 of 18).
Variant GADIEEYGIS | VIYADGVRKSYVNSFK | GEVAGTFTN showed no signal (0 of 6 replicates; controls 0 of 18).
Variant GFQLNSYGIS | VIYSDGRRTFYGDSVR | GRAAGWFDS showed no signal (0 of 6 replicates; controls 0 of 18).
Variant GFDLDEYGIS | VIYADGMRTAYSDSVK | GANAGTFDI showed 780 pM (6 of 6 replicates; controls 0 of 18).
Variant GFTLNDYGIS | VIYSDGRRTFYIDSVK | GRIAGTFDS showed 9.5 nM (5 of 6 replicates; controls 0 of 18).
Variant GFTLNSYGIS | VIYSDGRRTAYQDSVK | GEAAGTFDS showed 3.6 nM (6 of 6 replicates; controls 1 of 18).
Variant GFDLNEYGIS | VIYADGMRTAYADSVK | GNIAGTFDQ showed 430 pM (6 of 6 replicates; controls 0 of 18).
Variant YFTLESYGIS | VIYADGRRTFYGDSVK | GRAAGTFDS showed 40 nM (3 of 6 replicates; controls 0 of 18).
Variant GFDLNEYGIS | VIYADGRRTFYTDSVK | GEVAGTFDD showed 410 pM (6 of 6 replicates; controls 1 of 18).
Variant GFTLNKYGIS | VIYSDGQRTFYEDSVK | GRIAGTFDS showed 76 nM (3 of 6 replicates; controls 0 of 18).
Variant GFSLNEYGIS | VIYSDGRRTFYGDSVK | GKAAGTFDV showed 800 pM (6 of 6 replicates; controls 0 of 18).
Variant GFTLNNYGIS | VIYSDGRRTFYGDSVK | GRAAGTFDS showed 30 nM (2 of 6 replicates; controls 0 of 18).
Variant GFHLKSYGIS | VIYSDGKRTFYDDSVK | GRAAGTFDS showed 180 nM (6 of 6 replicates; controls 0 of 18).
Variant GFDLNEYGIS | VIYADGQRTFYADSVK | GEVAGTFVL showed 250 pM (6 of 6 replicates; controls 0 of 18).

Extract of 6 entries:

CDR-H1,CDR-H2,CDR-H3,Kd (apparent),detected,control signals
GFQLNSYGIS,VIYSDGRRTFYGDSVR,GRAAGWFDS,no signal,0 of 6,0 of 18
GFHLKSYGIS,VIYSDGKRTFYDDSVK,GRAAGTFDS,180 nM,6 of 6,0 of 18
GFSLNNYGIS,VIYSDGRRTFYGDSVK,GTAAGTFDS,2.5 nM,5 of 6,0 of 18
GFDLNEYGIS,VIYADGVRTAYVDNVK,GEVAGTFDV,330 pM,6 of 6,0 of 18
GFTLNSYGIS,VIYSDGRRTAYQDSVK,GEAAGTFDS,3.6 nM,6 of 6,1 of 18
GFNLNEYGIS,VIYSDGRRTAYAGSVK,GQNAGTFDS,2.6 nM,6 of 6,0 of 18

The authors' rule: three or more of the six replicates give a measured affinity, fewer mean a poor binder. Three control strains display no target. For all heavy chain designs, 1% of the pairings with them gave a signal, with a median of 120 nM and one signal in twenty below 7.0 nM, so weak values seen in few replicates may be background. The control count says in how many pairings with the empty strains this scFv gave a signal. The parent sequence was in this pool as ten entries: three were never detected, three once, and four in most replicates, with averages from 2.2 nM to 240 nM. The range of this assay differs from that of the first round, and the authors advise against merging the two.